Curated experimental data: vapor pressure values

Data: OPERA 2.9 data sets, kmansouri/OPERA on GitHub.

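The numbers are reported measurements, compiled and curated for the OPERA QSAR suite. The files give a single number for a compound and property, which may rest on several reports. Conditions of the individual experiments are not part of the data. A value may pool stereoisomers or salt forms, and the file does not say which form was measured. Some upstream entries may be estimates or bounds without being marked so.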

Vapor pressure is log10 of mmHg; the set covers 15 to 30 °C, mostly 20 to 25 °C.

compound,vapor pressure (log10 mmHg)
[N-]=[N+]=C1C=Cc2c(cccc2S(=O)(=O)Oc2ccc(C(=O)c3ccccc3)c(OS(=O)(=O)c3cccc4c3C=CC(=[N+]=[N-])C4=O)c2OS(=O)(=O)c2cccc3c2C=CC(=[N+]=[N-])C3=O)C1=O,-7.033
Fc1cc(OC(F)(F)c2c(F)cc(Br)cc2F)cc(F)c1F,-3.628
C=CC(=O)NCCO,-3.803
C=C(C)C(=O)OCCCC(F)(F)C(F)(F)C(F)(F)C(F)(F)C(F)(F)C(F)(F)F,-1.346
CC1=CC(C)C(C=O)C(C)C1 (configuration not stated),-0.307
CCCCC1CCC(C2CCC(CCC)CC2)CC1 (configuration not stated),-4.679
Cc1cc(-n2nc3ccc(Cl)cc3n2)c(O)c(C(C)(C)C)c1,-8.252
CCCCCCCCCCCCCCCCCCOCCC[N+](C)(C)C.[Cl-],-4.979
Clc1cc(Cl)cc(C2(CC(Cl)(Cl)Cl)CO2)c1 (configuration not stated),-5.658
COCC(=O)OC(c1ncccc1S(=O)(=O)NC(=O)Nc1nc(OC)cc(OC)n1)C(C)F (configuration not stated),-6.854
CC(=O)OCCC(C)(C)O,-1.212
CCC(=O)C(C)=O,1.302
Cc1ccc2c(c1)C(=O)C(C)C2 (configuration not stated),-4.179
C=C(C)C(=O)OC1CC(C)CC(C)(C)C1 (configuration not stated),-1.339
CCNC(=S)OC(C)C,0.973
COC(F)(F)C(C(F)(F)F)C(F)(F)F,2.107
C/C(=C\c1ccc(C)cc1)CO,-3.535
O=S(=O)([O-])C(O)CCCC(O)S(=O)(=O)[O-].[Na+].[Na+] (configuration not stated),-7.654
CCCCCCCCCC[C@H]1O[C@H]1CCCCC(C)C,-3.678
CCc1c(Cl)cc(NC(=O)C(CC)Oc2ccc(C(C)(C)CC)cc2C(C)(C)CC)c(O)c1Cl (configuration not stated),-8.547
NC(=O)c1ccccc1O,-4.824
CCOC(=O)[C@@H](N)[C@@H](C)O,-2.35
[Mn+3].[O-]c1ccccc1/C=N/CCN(CC/N=C/c1ccccc1[O-])CC/N=C/c1ccccc1[O-],-13.65
Br.COc1ccc(C)cc1C(CCN(C(C)C)C(C)C)c1ccccc1 (configuration not stated),-9.949
C=CC(=C)CCCC(C)(C)OC(C)=O,-1.156
C[C@]1(COC(=O)C2CC2)[C@@H]2C[C@H](O)[C@@]3(C)Oc4cc(-c5cccnc5)oc(=O)c4[C@H](O)[C@@H]3[C@@]2(C)CC[C@@H]1OC(=O)C1CC1,-7.129
C=CCCCCCCCCCCCCCCCCCCCCCC,-4.939
CCCCCCCCCCCCN1CCCC1=O,-4.815
CC(O)CN(CC(C)O)C(=O)CCCCC(=O)N(CC(C)O)CC(C)O (configuration not stated),-4.417
O=C(O)Cc1c(Cl)ccc(Cl)c1Cl,-4.77

Again, the 4 entries with the lowest vapor pressure:

| compound | vapor pressure (log10 mmHg) |
|---|---|
| [Mn+3].[O-]c1ccccc1/C=N/CCN(CC/N=C/c1ccccc1[O-])CC/N=C/c1ccccc1[O-] | -13.65 |
| Br.COc1ccc(C)cc1C(CCN(C(C)C)C(C)C)c1ccccc1 (configuration not stated) | -9.949 |
| CCc1c(Cl)cc(NC(=O)C(CC)Oc2ccc(C(C)(C)CC)cc2C(C)(C)CC)c(O)c1Cl (configuration not stated) | -8.547 |
| Cc1cc(-n2nc3ccc(Cl)cc3n2)c(O)c(C(C)(C)C)c1 | -8.252 |